Test results taken from PMC10254235, “Design, Synthesis, and Anti-Cervical Cancer and Reversal of Tumor Multidrug Resistance Activity of Novel Nitrogen-Containing Heterocyclic Chalcone Derivatives” (Molecules, 2023).

Test system: p-VEGFR-2
Assay: Western blot, VEGFR-2 phosphorylation in HUVEC cells

## CNC(=O)c1cc(Oc2ccc(NC(=O)Nc3ccc(Cl)c(C(F)(F)F)c3)cc2)ccn1 [Sorafenib, reference compound]
  phosphorylation of VEGFR-2 in HUVEC cells (Western blot): significantly inhibited the phosphorylation of VEGFR-2
